# Measurements as given in PubChem BioAssay AID504357 (The Scripps Research Institute Molecular Screening Center, 2011).
# Amino acid sequences for entries named in this document (tags omitted).
# UniProt P35372, whole entry, looked up: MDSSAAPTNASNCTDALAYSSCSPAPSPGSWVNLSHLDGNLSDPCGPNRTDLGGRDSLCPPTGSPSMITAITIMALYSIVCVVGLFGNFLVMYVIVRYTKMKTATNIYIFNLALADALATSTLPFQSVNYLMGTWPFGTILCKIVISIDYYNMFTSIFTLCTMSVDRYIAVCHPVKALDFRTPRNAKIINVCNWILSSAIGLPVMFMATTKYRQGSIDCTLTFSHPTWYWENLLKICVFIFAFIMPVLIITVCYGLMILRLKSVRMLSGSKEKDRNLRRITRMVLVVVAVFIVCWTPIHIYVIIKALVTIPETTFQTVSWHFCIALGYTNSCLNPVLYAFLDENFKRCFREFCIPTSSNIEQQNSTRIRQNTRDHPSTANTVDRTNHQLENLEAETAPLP
# UniProt P41143, whole entry, looked up: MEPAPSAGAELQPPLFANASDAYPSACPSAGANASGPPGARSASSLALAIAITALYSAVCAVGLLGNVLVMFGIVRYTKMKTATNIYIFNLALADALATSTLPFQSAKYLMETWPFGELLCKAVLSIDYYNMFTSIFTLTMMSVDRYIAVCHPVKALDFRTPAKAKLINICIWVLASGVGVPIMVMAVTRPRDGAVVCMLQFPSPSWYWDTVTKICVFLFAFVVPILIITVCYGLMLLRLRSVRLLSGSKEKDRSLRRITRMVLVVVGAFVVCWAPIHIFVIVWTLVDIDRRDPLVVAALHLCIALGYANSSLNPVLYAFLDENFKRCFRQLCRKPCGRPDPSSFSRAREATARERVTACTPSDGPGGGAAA
# The list shows a part of the results, in another mix than the full data. Some tests of the compounds listed are not included; inactive here does not mean inactive elsewhere. The source made the active and inactive calls. Rule as the data show it: active = inhibition above about 22% (passing the limit was not always enough); inactive = the rest.
# Target: Mu-type opioid receptor (Homo sapiens) + Delta-type opioid receptor (Homo sapiens) (UniProt P35372+P41143)
# Test: OPRM1-OPRD1 heterodimer inverse agonism – cell-based, luminescence, primary screen (AID 504357);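 also: 0% = cells with DMSO and 100% = wells without cells with DMSO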
# Conditions: cell-based MOR-DOR heterodimer luminescence, at 9.3 µM, active compounds read high
row,Compound,inhibition
1,CN(C)c1ccc(C(=O)NCC2(N(C)C)CCCCC2)cc1,inactive: -137%
2,CN(C)C1CCCC1OC(=O)C(O)(c1ccccc1)c1ccccc1 (stereo not given),inactive: 5.77%
3,Cc1ccccc1C(=O)NCC1(N2CCCCC2)CCCCC1,inactive: 12%
4,COc1ccc(C(=O)NCC2(N(C)C)CCCCC2)cc1,inactive: -16.9%
5,O=C(NCC1(N2CCCCC2)CCCCC1)c1cccc(Br)c1,inactive: 13.6%
6,CCN1CCCC(OC(=O)C2(O)c3ccccc3C=Cc3ccccc32)C1 (stereo not given),inactive: 11%
7,Cc1cc(C(=O)NCC2(N3CCCCC3)CCCCC2)ccc1[N+](=O)[O-],inactive: 8.57%
8,O=C(NCC1(N2CCCCC2)CCCCC1)c1cc(F)c(F)cc1Cl,inactive: 6.58%
9,C=CCN1CCN(CCOC(=O)C(O)(c2ccccc2)c2ccccc2)CC1,inactive: -4.49%
10,CN1[C@@H]2CC[C@H]1CC(OC(=O)C(O)(c1ccccc1)c1ccccc1)C2 (stereo not given in full),inactive: 9.74%
11,O=C(NCC1(N2CCCCC2)CCCCC1)c1cc([N+](=O)[O-])ccc1Cl,inactive: -3.32%
12,Cc1ccc(C(=O)NCC2(N3CCCCC3)CCCCC2)cc1,inactive: -2.25%
13,COc1cc(SC)ccc1C(=O)NCC1(N(C)C)CCCCC1,inactive: 6.71%
14,CCN(CC)CC(C)C(C)OC(=O)C(O)(c1ccccc1)c1ccccc1 (stereo not given),inactive: -4.73%
15,CC(C)N1C(=O)CC2(CCN(CCOC(=O)C(O)(c3ccccc3)c3ccccc3)CC2)C1=O,inactive: -4.16%
16,O=C(OC1CN2CCC1CC2)C(CO)(c1ccccc1)c1ccccc1 (stereo not given),inactive: 2.3%
17,O=C(OCCN1CCCC1)C(O)(c1ccccc1)c1ccccc1,inactive: 5.78%
18,CC(C)Oc1ccc(C(=O)NCC2(N(C)C)CCCCC2)cc1,inactive: -48.6%
19,CN(C)c1cccc(C(=O)NCC2(N(C)C)CCCCC2)c1,inactive: -24.3%
20,COc1ccc(Br)c(C(=O)NCC2(N3CCCCC3)CCCCC2)c1,inactive: 7.16%
21,COc1cc(C(=O)NCC2(N(C)C)CCCCC2)c([N+](=O)[O-])cc1OC,inactive: 4.67%
22,CN(C)C1(CNC(=O)c2ccc(Br)cc2)CCCCC1,inactive: -158%
23,O=C(NCC1(N2CCCCC2)CCCCC1)c1cccc(Cl)c1,inactive: -4.33%
24,COc1ccc(Cl)cc1C(=O)NCC1(N(C)C)CCCCC1,inactive: 13.9%
25,COc1cccc(C(=O)NCC2(N3CCCCC3)CCCCC2)c1,inactive: 8.9%
